Test results published in US20060094649A1 (published 2006).

Assays:
HLA-B*4403 [1] = target: HLA-B*4403 (human); experiment: competition vs labelled reference peptide on HLA class I
HLA-B*4403 [2] = target: HLA-B*4403 (human); experiment: competition with labeled probe peptide, purified HLA class I

Binder	IC50 (HLA-B*4403 [1]) [nM]	IC50 (HLA-B*4403 [2]) [nM]
RELQLRSLTEI [RELQLRSLTEI (Her2/neu position 138, 11-mer)]	0.99	–
LESEFQAAL [LESEFQAAL (MAGE3, position printed 301)]	–	1
